# Test results reported in PubChem BioAssay AID1117267 (The Scripps Research Institute Molecular Screening Center, 2014).
# The list shows a part of the results, in another mix than the full data. Active and inactive are the calls of the source.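 How the source made its calls: active means activation above the mean of all tested compounds plus 3 SD (cut at about 9.5% in these data); inactive means the rest.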
# Assay: TTR transcription activators in neuroblastoma reporter cells, primary screen, cell-based, luminescence, SH-SY5Y, TTR promoter Gaussia luciferase (AID 1117267);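 further: cells exposed to compounds for one day before reading; 0% = median of all test compound wells on the plate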
# Settings: at 16.7 µM, active compounds read high, 100% = recombinant luciferase protein wells
row,SMILES,activation
1,CCCCn1nnnc1C(c1ccccc1)N1CCC(n2c(=O)[nH]c3ccccc32)CC1 (stereo not given),inactive: -1.25%
2,O=c1[nH]c2ccccc2n1C1CCN(C(c2ccnc3ccccc23)c2nnnn2C2CCCC2)CC1 (stereo not given),inactive: -1.66%
3,N/C(=N\O)c1c(N)no[n+]1[O-],inactive: 1.42%
4,COc1cccc(C(c2nnnn2C(C)(C)C)N2CCC(n3c(=O)[nH]c4ccccc43)CC2)c1OC (stereo not given),inactive: -2.32%
5,CCCCn1nnnc1C(c1cccc(OC)c1OC)N1CCC(n2c(=O)[nH]c3ccccc32)CC1 (stereo not given),inactive: 1.81%
6,O=c1[nH]c2ccccc2n1C1CCN(C(c2cccs2)c2nnnn2C2CCCC2)CC1 (stereo not given),inactive: 1.15%
7,O=c1[nH]c2ccccc2n1C1CCN(C(c2ccccc2)c2nnnn2C2CCCC2)CC1 (stereo not given),inactive: -1.37%
8,CC(C)(C)n1nnnc1C(c1cccc2ccccc12)N1CCC(n2c(=O)[nH]c3ccccc32)CC1 (stereo not given),inactive: -2.7%
9,CCC(c1nnnn1C1CCCCC1)N1CCC(n2c(=O)[nH]c3ccccc32)CC1 (stereo not given),inactive: -0.75%
10,COc1ccc(C(c2nnnn2C2CCCCC2)N2CCC(n3c(=O)[nH]c4ccccc43)CC2)cc1 (stereo not given),inactive: -0.59%
11,O=C(NCC1(N2CCCCC2)CCCCC1)c1ccco1,inactive: 1.9%
12,CC(C)(C)OC(=O)N1CCC(Nc2ccccc2)CC1,inactive: -1.47%
13,COc1cc(OC)cc(C(=O)NCC2(N3CCOCC3)CCCCC2)c1,inactive: 0.76%
14,COc1cccc(C(c2nnnn2C2CCCC2)N2CCC(n3c(=O)[nH]c4ccccc43)CC2)c1OC (stereo not given),inactive: -3.55%
15,CSc1ccccc1C(=O)NCC1(N2CCCCC2)CCCCC1,inactive: 2.76%
16,O=c1[nH]c2ccccc2n1C1CCN(C(c2ccccc2OC(F)(F)F)c2nnnn2C2CCCCC2)CC1 (stereo not given),inactive: -2.48%
17,CCOC(=O)N1CCC(Nc2ccc(OC)cc2)CC1,inactive: 1.84%
18,COc1ccc(Cl)cc1C(=O)NCC1(N2CCOCC2)CCCCC1,inactive: -0.03%
19,N#CC1(Nc2ccccc2)CCN(Cc2ccccc2)CC1,inactive: 9.43%
20,CCOc1ccc(C)cc1CN(CCCl)CCCl,inactive: -0.06%
21,CC(C)(C)n1nnnc1C(c1ccccc1)N1CCC(n2c(=O)[nH]c3ccccc32)CC1 (stereo not given),inactive: 1.52%
22,CCOC(=O)N1CCC(Nc2ccc(F)cc2)CC1,inactive: 0.39%
23,COc1ccc(NC2CCN(CCc3ccccc3)CC2)c(OC)c1,inactive: -0.88%
24,CCCCn1nnnc1C(c1cc2ccccc2o1)N1CCC(n2c(=O)[nH]c3ccccc32)CC1 (stereo not given),inactive: -3.79%
25,O=C(NCC1(N2CCCCC2)CCCCC1)c1ccc(OC(F)F)cc1,inactive: -0.99%
26,O=C(NCC1(N2CCOCC2)CCCCC1)c1cc(=O)[nH]c2ccccc12,inactive: 6.47%
27,COC(=O)C1(Nc2ccccc2)CCN(Cc2ccccc2)CC1,inactive: 1.95%
28,CCCCn1nnnc1C(c1ccnc2ccccc12)N1CCC(n2c(=O)[nH]c3ccccc32)CC1 (stereo not given),inactive: -0.24%
29,CCCOc1ccc(C(=O)NCC2(N(C)C)CCCCC2)cc1OC,inactive: -1.01%
30,COc1ccc(C(c2nnnn2C2CCCC2)N2CCC(n3c(=O)[nH]c4ccccc43)CC2)cc1 (stereo not given),inactive: -1.84%
